In general, Km refers to the concentration of substrate that gives half-maximal velocity. Broadly, the kcat is the maximal rate divided by the concentration of active sites.

Km and kcat data for one substance are collected here from article PMC8696161.

The data set has as its system Nc1ncnc2c1ncn2[C@@H]1O[C@H](COP(=O)(O)OP(=O)(O)OP(=O)(O)O)[C@@H](O)[C@H]1O. As to the kind of experiment: purified protein. Particulars: Mg acetate, Hepes pH 7.5, 25°C.

“MSMEG_1954 (Mycolicibacterium smegmatis MC2 155)”: the Michaelis-Menten constant (Km) worked out at 231 µM and the catalytic constant (kcat) worked out at 0.00864 s⁻¹.
